Legend:
[1] = target: T1, RXRβ (UniProt P28704); conditions: read-out: RXRβ EC50; CV-1 cells, RXR homodimers, mean ± standard deviation
T1 sequence (P28704 111-520 limits assumed): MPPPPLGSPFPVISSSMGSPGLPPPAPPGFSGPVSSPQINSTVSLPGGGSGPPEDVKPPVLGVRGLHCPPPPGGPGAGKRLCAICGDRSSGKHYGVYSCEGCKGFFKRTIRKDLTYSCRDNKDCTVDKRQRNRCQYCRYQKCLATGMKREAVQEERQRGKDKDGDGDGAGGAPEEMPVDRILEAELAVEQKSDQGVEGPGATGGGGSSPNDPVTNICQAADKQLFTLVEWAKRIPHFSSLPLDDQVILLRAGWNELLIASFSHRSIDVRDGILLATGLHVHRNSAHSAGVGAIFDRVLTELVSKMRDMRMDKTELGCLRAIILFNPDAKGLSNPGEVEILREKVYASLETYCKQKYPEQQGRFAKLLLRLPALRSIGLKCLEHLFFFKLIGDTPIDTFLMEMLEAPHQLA

[2] = target: T2, RXRβ (Mus musculus, UniProt P28704); assay: biochemical
T2 sequence (P28704 1-520): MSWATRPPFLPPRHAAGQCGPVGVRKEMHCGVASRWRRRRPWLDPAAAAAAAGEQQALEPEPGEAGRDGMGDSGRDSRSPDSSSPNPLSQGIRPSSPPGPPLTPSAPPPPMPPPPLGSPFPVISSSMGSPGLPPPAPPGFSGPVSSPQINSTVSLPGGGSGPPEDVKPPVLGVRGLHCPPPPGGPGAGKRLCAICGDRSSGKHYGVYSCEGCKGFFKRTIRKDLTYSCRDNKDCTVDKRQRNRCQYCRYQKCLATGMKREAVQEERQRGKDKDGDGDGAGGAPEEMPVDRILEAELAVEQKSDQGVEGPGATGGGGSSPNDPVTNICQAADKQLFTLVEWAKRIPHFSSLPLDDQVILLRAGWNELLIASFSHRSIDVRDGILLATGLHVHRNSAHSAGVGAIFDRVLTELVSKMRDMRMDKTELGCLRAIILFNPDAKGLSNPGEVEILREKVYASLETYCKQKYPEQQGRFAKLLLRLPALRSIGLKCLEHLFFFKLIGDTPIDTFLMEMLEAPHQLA

In the case of `CC(/C=C/C1CC1(C)c1ccc2c(c1)C(C)(C)CCC2(C)C)=C\C(=O)O` (centres unmarked), the EC50 [1] is reported as 0.07 nM and the Ki [2] is reported as 0.4 nM.

From patent publication US20020037514A1, “Identification of nuclear receptor-dependent coregulator recruitment” (priority 2000, published 2002)
